In PubChem BioAssay AID493091 (Sanford-Burnham Center for Chemical Genomics, 2011):
The list shows a part of the results, in another mix than the full data. Active and inactive are the calls of the source.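 The calls were made as follows: active = inhibition above about 50% at 20 µM (limit read from the data); inactive = the rest.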

The chains behind the UniProt entries cited, without tags or fusion partners. Residues count along the entry.
UniProt Q9GZU7, 76-261 limits assumed: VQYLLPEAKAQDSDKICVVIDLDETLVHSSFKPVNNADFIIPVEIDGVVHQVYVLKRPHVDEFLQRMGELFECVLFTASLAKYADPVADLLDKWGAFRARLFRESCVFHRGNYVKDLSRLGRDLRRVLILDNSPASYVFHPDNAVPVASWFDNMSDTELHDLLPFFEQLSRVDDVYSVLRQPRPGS

The compounds below were run against Carboxy-terminal domain RNA polymerase II polypeptide A small phosphatase 1 (Homo sapiens) (UniProt Q9GZU7) (assay: inhibition of human SCP1 dephosphorylation activity – biochemical, colorimetric, uHTS, primary screen (AID 493091;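 also: plate controls were DMSO wells with enzyme for no effect and wells lacking enzyme for full effect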)). Conditions: Recombinant Scp1, phosphopeptide, malachite green phosphate absorbance; at 20 µM; hits give high values.
Summary of the method: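 Material – SCP-1 phosphatase catalytic domain, residues 76-261 · Buffer or medium – Acidic Tris acetate buffer with magnesium and detergent · Also added – Phospho 17-mer peptide substrate · Compound – single 20 µM dose, 1% DMSO · Times – 45 min room-temperature reaction, 5 min colour, 30 min stabiliser · Technique – Phosphate-binding colour reagent, absorbance read at 630 nm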

Structure (SMILES)	inhibition
CN(C)C1(CNC(=O)c2cccc(C#N)c2)CCCCC1	inactive: -5.74%
CCCN1CCC(Nc2cc(OC)cc(OC)c2)CC1	inactive: -10.2%
Cc1cc(N(CCCl)CCCl)ccc1C=O	inactive: -2.79%
c1ccc(CN2CCC(Nc3ccccc3)CC2)cc1	inactive: -4.24%
N#Cc1ccc(C(=O)NCC2(N3CCCCC3)CCCCC2)cc1	inactive: 1.44%
CC(C)(C)OC(=O)N1CCC(N(C(=O)c2ccccc2)c2ccc(Cl)cc2)CC1	inactive: -9.05%
O=C(OC1CN2CCC1CC2)C1c2ccccc2C=Cc2ccccc21 (stereo not given)	inactive: -6.85%
CCc1cc(C(=O)NCC2(N3CCCCC3)CCCCC2)sc1C	inactive: -6.94%
CCOC(=O)N1CCC(Nc2ccc(C)cc2)CC1	inactive: -6.01%
N/C(=N\O)c1c(N)no[n+]1[O-]	inactive: -9.53%
COc1ccc(C(=O)NCC2(N3CCOCC3)CCCCC2)cc1OC	inactive: -3.26%
COc1cc(C(=O)NCC2(N3CCOCC3)CCCCC2)cc(OC)c1C	inactive: -4.35%
O=C(NCC1(N2CCOCC2)CCCCC1)c1cc(Br)ccc1Cl	inactive: 2.84%
CN1CCC(Nc2ccc(Cl)cc2)CC1	inactive: -3.55%
COc1cccc(C(=O)N(c2cc(C)cc(C)c2)C2CCN(C(=O)OC(C)(C)C)CC2)c1	inactive: -15.9%
COc1cc(OC)cc(C(=O)NCC2(N3CCOCC3)CCCCC2)c1	inactive: -10.4%
CCC(CO)(C(=O)OC1CN2CCC1CC2)c1ccccc1 (stereo not given)	inactive: 1.11%
O=C(O)C1(Nc2ccccc2)CCN(Cc2ccccc2)CC1	inactive: -11%
CC(C)(C)OC(=O)N1CCC(Nc2ccccc2)CC1	inactive: 2.58%
CCCOc1ccc(C(=O)NCC2(N(C)C)CCCCC2)cc1	inactive: -6.82%
CN1CCC(Nc2ccc(F)c(Cl)c2)CC1	inactive: 2.4%
CCOc1ncccc1C(=O)NCC1(N2CCOCC2)CCCCC1	inactive: -14.3%
Cn1c(=O)[nH]cc(N(CCCl)CCCl)c1=O	inactive: -4.68%
CN(C)c1ccc(C(=O)NCC2(N3CCCCC3)CCCCC2)cc1	inactive: -2.65%
O=C(NCC1(N2CCCCC2)CCCCC1)c1ccco1	inactive: -3.58%

Structure (SMILES)	inhibition
CCN1CCC(Nc2cccc(F)c2)CC1	inactive: -7.1%
Cc1ccccc1NC1(C#N)CCN(Cc2ccccc2)CC1	inactive: -15.3%
Fc1ccccc1NC1CCN(Cc2ccccc2)CC1	inactive: -5.22%
Cc1ccc(C(=O)NCC2(N3CCCCC3)CCCCC2)o1	inactive: -0.57%
Cc1ccc(NC2(C#N)CCN(Cc3ccccc3)CC2)cc1	inactive: 2.63%
CC(=O)N(c1ccccc1)C1CCNCC1	inactive: -2.23%
COc1cc(OC)cc(C(=O)NCC2(N3CCCCC3)CCCCC2)c1	inactive: -5.49%
COc1cc(C(=O)NCC2(N(C)C)CCCCC2)ccc1OC(F)F	inactive: 13.5%
CCOC(=O)N1CCC(Nc2cccc(C)c2)CC1	inactive: -6.2%
CCOC(=O)N1CCC(Nc2ccc(F)cc2)CC1	inactive: -3.69%
COc1ccc(NC2CCN(CCc3ccccc3)CC2)c(OC)c1	inactive: -6.17%
O=C(NCC1(N2CCCCC2)CCCCC1)c1ccc(F)cc1	inactive: -3.83%
CCCCOc1ccc(C(=O)NCC2(N3CCOCC3)CCCCC2)cc1	inactive: -2.34%
O=P1(N(CCCl)CCCl)SCCCS1	inactive: -3.9%
O=C1CCN(Cc2ccccc2)CC1	inactive: 4.1%
CCOc1ccc(C)cc1CN(CCCl)CCCl	inactive: -14.2%
COc1ccc(Cl)cc1C(=O)NCC1(N2CCOCC2)CCCCC1	inactive: -1.73%
O=C(OC1CN2CCC1CC2)C1c2ccccc2Oc2ccccc21 (stereo not given)	inactive: -7.65%
N#CC1(Nc2ccccc2)CCN(Cc2ccccc2)CC1	inactive: -10.9%
O=C(NCC1(N2CCCCC2)CCCCC1)c1ccc(Cl)s1	inactive: -4.57%
CCOC(=O)N1CCC(Nc2ccc(OC)cc2)CC1	inactive: -4.74%
Cc1cc(C)cc(N(C(=O)c2ccccc2)C2CCN(C(=O)OC(C)(C)C)CC2)c1	inactive: -5.74%
O=C(NCC1(N2CCCCC2)CCCCC1)c1ccc(Cl)nc1	inactive: -5.8%
O=C(NCC1(N2CCOCC2)CCCCC1)c1cc2ccccc2o1	inactive: 3.82%
Cc1cccc(NC2(C#N)CCN(Cc3ccccc3)CC2)c1	inactive: -0.04%

Structure (SMILES)	inhibition
CSc1ccccc1C(=O)NCC1(N2CCCCC2)CCCCC1	inactive: -2.98%
COc1ccc(C(=O)NCC2(N3CCCCC3)CCCCC2)c(OC)c1OC	inactive: 10.6%
CC(C)(C)OC(=O)N1CCC(N(C(=O)c2ccccc2)c2ccc(F)cc2)CC1	inactive: -7.31%
COc1ccc(C(=O)NCC2(N3CCCCC3)CCCCC2)cc1	inactive: 0.15%
O=C(NCC1(N2CCCCC2)CCCCC1)c1cccs1	inactive: 14.8%
O=C(NCC1(N2CCCCC2)CCCCC1)c1ccc(=O)[nH]c1	inactive: -4.7%
CCCOc1ccc(C(=O)NCC2(N(C)C)CCCCC2)cc1OC	inactive: -1.55%
O=C(NCC1(N2CCCCC2)CCCCC1)c1cncc(Br)c1	inactive: -2.74%
CN1CCC(Nc2cccc(F)c2)CC1	inactive: -4.37%
O=C(NCC1(N2CCOCC2)CCCCC1)c1cc(F)c(F)cc1Cl	inactive: -8.57%
COc1cc(OC)c(C(=O)NCC2(N(C)C)CCCCC2)cc1OC	inactive: -3.66%
CC(C)c1ccc(NC2CCN(C(=O)OC(C)(C)C)CC2)cc1	inactive: -2.65%
CN(C)c1cccc(C(=O)NCC2(N3CCCCC3)CCCCC2)c1	inactive: -4.57%
COc1ccc(CN(CCCl)CCCl)cc1Cl	inactive: -4.45%
O=C(NCC1(N2CCOCC2)CCCCC1)c1cc(=O)[nH]c2ccccc12	inactive: 0.47%
COc1cc(C(=O)NCC2(N3CCCCC3)CCCCC2)ccc1OC(F)F	inactive: -7.11%
COc1ccc(NC2CCN(C(=O)OC(C)(C)C)CC2)cc1	inactive: -7.74%
CC(C)c1ccc(C(=O)NCC2(N3CCOCC3)CCCCC2)cc1	inactive: -0.06%
CN1CCN(CCOC(=O)C(O)(c2ccccc2)c2ccccc2)CC1	inactive: -11.1%
O=C(NCC1(N2CCCCC2)CCCCC1)c1cccc(C(F)(F)F)c1	inactive: -0.76%
N#CC1(Nc2ccccc2)CCN(CCc2ccccc2)CC1	inactive: -10.1%
CCN1CCC(Nc2ccc(Cl)cc2)CC1	inactive: -1.18%
CSc1ccc(C(=O)NCC2(N3CCOCC3)CCCCC2)cc1	inactive: -3.85%
O=C(NCC1(N2CCCCC2)CCCCC1)c1cccc([N+](=O)[O-])c1	inactive: 2.03%
O=C(NCC1(N2CCCCC2)CCCCC1)c1ccc(OC(F)F)cc1	inactive: -5.49%
